Values of other authors, collected in patent publication US20090185973A1, “METHODS, COMPOSITIONS, UNIT DOSAGE FORMS, AND KITS FOR PHARMACOLOGIC STRESS TESTING WITH REDUCED SIDE EFFECTS” (ADENOBIO N.V., priority 2008, published 2009).

Molecular target: A2a receptor (Homo sapiens, UniProt P29274)
Conditions: in vivo; cited from earlier work

Compound: CNC(=O)c1cnn(-c2nc(N)c3ncn([C@@H]4O[C@H](CO)[C@@H](O)[C@H]4O)c3n2)c1 [Regadenoson, regadenoson]
- Side effects as compared to Adenoscan (adenosine): increase in dyspnea, headache and gastrointestinal disorders
